7 molecules from PubChem BioAssay AID2147 (National Center for Advancing Translational Sciences (NCATS), 2009) can be followed below.

Chains of the proteins cited; added tags and fusions are not shown. Residues count along the entry.
UniProt B2RXH2, 1-337 limits assumed: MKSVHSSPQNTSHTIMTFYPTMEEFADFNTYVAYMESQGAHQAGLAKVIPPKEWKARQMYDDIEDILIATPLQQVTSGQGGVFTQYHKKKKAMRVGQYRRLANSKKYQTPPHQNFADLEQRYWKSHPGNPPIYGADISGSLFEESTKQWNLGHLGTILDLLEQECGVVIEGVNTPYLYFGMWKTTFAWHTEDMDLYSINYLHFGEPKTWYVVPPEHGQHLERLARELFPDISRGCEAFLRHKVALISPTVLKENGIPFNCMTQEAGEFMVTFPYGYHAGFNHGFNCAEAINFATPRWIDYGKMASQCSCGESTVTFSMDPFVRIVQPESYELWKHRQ

Only a part is listed here, and it is no random draw. Some of these compounds have results that are not shown, active ones among them. Inconclusive results are not listed. Activity calls are given as the source filed them. Calls come from the whole dose curve; as a rule, active = well fitted inhibition curve with a large enough effect (not every such curve was filed as active); inconclusive = small, poorly fitted or top-dose-only effect, or another doubt; inactive = no such curve, though single readings can be large or run the other way.
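Note: 0% = wells with enzyme and -100% = buffer wells without enzyme; nearly all actives have a fitted effect of over 50% in size.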

This assay concerns the target Lysine-specific demethylase 4E (Homo sapiens) (UniProt B2RXH2). Description: qHTS Assay for Inhibitors of Human Jumonji Domain Containing 2E (JMJD2E). The following applies: JMJD2E catalytic domain, FDH-coupled NADH fluorescence (FDH is formaldehyde dehydrogenase); at 57.1 µM (top of the series).
On to `O=C(OC1CN2CCC1CC2)C(CO)(c1ccccc1)c1ccccc1` (configuration not stated), for which the activity change, negative = inhibition is inactive: -2.86%.
`COc1cccc(C(=O)NCC2(N3CCCCC3)CCCCC2)c1`: the activity change, negative = inhibition is inactive: -0.724%.
Under `CN(C)C1CCCC1OC(=O)C(O)(c1ccccc1)c1ccccc1` (configuration not stated) stands inactive: -1.11%.
In the case of `Cc1ccccc1C(=O)NCC1(N2CCCCC2)CCCCC1`, the activity change, negative = inhibition was inactive: -2.06%.
For `O=C(NCC1(N2CCCCC2)CCCCC1)c1cc([N+](=O)[O-])ccc1Cl`, the activity change, negative = inhibition is inactive: -3.92%.
As to `CC(C)N1C(=O)CC2(CCN(CCOC(=O)C(O)(c3ccccc3)c3ccccc3)CC2)C1=O`, the activity change, negative = inhibition was inactive: -9.87%.
Consider `CCN(CC)CC(C)C(C)OC(=O)C(O)(c1ccccc1)c1ccccc1` (configuration not stated), for which the activity change, negative = inhibition is inactive: -1.1%.
